For this experiment, the target named is M1 muscarinic receptor (Rattus norvegicus, UniProt P08482). The settings on record: CHO M1WT3 cells, 5 minutes at room temperature, calcium indicator dye imaging.

The chains behind the UniProt entries cited, without tags or fusion partners. Where a name states a change or a piece, a line headed by the entry shows the natural chain unless it says otherwise.
UniProt P08482: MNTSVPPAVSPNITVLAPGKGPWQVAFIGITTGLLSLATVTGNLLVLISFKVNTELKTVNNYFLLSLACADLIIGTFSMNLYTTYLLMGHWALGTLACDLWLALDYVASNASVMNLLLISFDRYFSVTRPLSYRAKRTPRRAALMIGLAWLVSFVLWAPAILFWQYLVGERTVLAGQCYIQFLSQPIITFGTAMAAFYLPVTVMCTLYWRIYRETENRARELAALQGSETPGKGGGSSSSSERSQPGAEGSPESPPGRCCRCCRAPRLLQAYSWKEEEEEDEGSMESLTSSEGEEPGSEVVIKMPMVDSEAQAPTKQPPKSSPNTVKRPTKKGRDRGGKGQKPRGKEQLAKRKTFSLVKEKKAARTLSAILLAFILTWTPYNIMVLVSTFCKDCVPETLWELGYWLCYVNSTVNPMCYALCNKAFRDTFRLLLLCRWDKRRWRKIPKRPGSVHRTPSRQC

Experimental findings from patent US8993349B2, “Method for enhancing transport of semiconductor nanocrystals across biological membranes” (Life Technologies Corporation, priority 2000, dated 2015) are described below.

Turning to `C[N+](C)(C)CCOC(N)=O` [carbachol], the “calcium response of unencoded or encoded cells” value is reported as “can stimulate the calcium response”.
